# Measured affinities in a library of Ab-14 heavy chain variants

Values reported by Engelhart et al. 2022, doi:10.1038/s41597-022-01779-4 (FLAb copy).

Target peptide (SARS-CoV-2 spike, HR2 region): PDVDLGDISGINAS

The variants keep the light chain, the linker and the frameworks of Ab-14 (scFv order VH, a (GGGGS)3 linker, VL).
VH: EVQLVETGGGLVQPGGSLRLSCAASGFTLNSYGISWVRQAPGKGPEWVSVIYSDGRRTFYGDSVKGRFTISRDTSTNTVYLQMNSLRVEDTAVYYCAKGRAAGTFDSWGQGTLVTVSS
VL: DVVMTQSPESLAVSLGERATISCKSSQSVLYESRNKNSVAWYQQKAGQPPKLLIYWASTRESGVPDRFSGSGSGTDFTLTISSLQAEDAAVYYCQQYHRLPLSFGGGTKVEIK

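The starting antibody came from a phage panning campaign against this peptide. AAYL49 was designed without a model: most single CDR substitutions and a random sample of double and triple ones. AlphaSeq pools MATa yeast showing the antibodies with MATalpha yeast showing the peptide. Binding brings cells together so that they mate, and sequencing counts the barcode pairs among the diploids. Each replicate has its own calibration line, from reference interactions of the BCL2 family. Each pool was mated in three replicate cultures.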

Each variant is given by its three heavy chain CDRs, as the data file delimits them; those of the parent are GFTLNSYGIS, VIYSDGRRTFYGDSVK, GRAAGTFDS.
All variants listed here change T28 of the VH, counted from its first residue.
Values are apparent Kd, the geometric mean of the replicates that gave a signal; lower means stronger binding.
An entry "no signal" has no value in the source: the pair was not observed among the diploids in any replicate. This suggests poor binding but is not conclusive.
As a blank, each scFv also met three strains without target: over library AAYL49, 15% of these pairings were detected, typically at 11 µM and seldom below 680 nM. The control count says in how many pairings with the empty strains this scFv gave a signal.

With GFQLNSYGSS | VIYSDGRRTFYGDSVM | GRAAGTFDS the result was no signal (0 of 3 replicates; controls 3 of 9). The variant GFRLNSYGIS | VIYSDGRRTFYGDSVK | GRCAGTADS gave no signal (0 of 3 replicates; controls 0 of 9). The variant GFSLNSWGIS | VIYSDGRRTFYGDSVK | GRAAGTFDS gave 580 nM (2 of 3 replicates; controls 0 of 9). With GFVLNMYGIS | VIYSDGRRTFYGDSVK | GRAAGCFDS the result was 6.9 µM (2 of 3 replicates; controls 2 of 9). With GFALNSYGIS | VIYSDMRRTFYFDSVK | GRAAGTFDS the result was no signal (0 of 3 replicates; controls 0 of 9). With GFEFNSYGIS | VIYSDGRRTFYGDSVK | GRAAGTFDS the result was 180 nM (3 of 3 replicates; controls 1 of 9). For GFKLNYYGIS | VIYSDGRRTFYGDSVK | GRCAGTFDS, the assay gave 190 nM (3 of 3 replicates; controls 0 of 9).

For GFCLNSYGIS | VIYSDGRRTFYGSSVY | GRAAGTFDS, the assay gave 1.3 µM (3 of 3 replicates; controls 2 of 9). The variant GFILNSYGIS | VIYSDERRTFYGDSVK | GRAAFTFDS showed 1.6 µM (1 of 3 replicates; controls 0 of 9). With GFSLNSYGIS | VIYSDQRRTFTGDSVK | GRAAGTFDS the result was 3.8 µM (1 of 3 replicates; controls 2 of 9). The variant GFWLNSYGRS | VIYSDGRRTLYGDSVK | GRAAGTFDS showed 5.9 µM (1 of 3 replicates; controls 1 of 9). The variant GFGLNSYGIS | VMYSDGRRTFYGDSVK | GRAAGTSDS showed no signal (0 of 3 replicates; controls 2 of 9). The variant GFLLNSYGIS | VIYSDGRRTFYGQSVK | GRMAGTFDS gave 150 nM (3 of 3 replicates; controls 0 of 9). The variant GFLLNSYGIS | VIYSDGRNTFYGLSVK | GRAAGTFDS showed 14 µM (2 of 3 replicates; controls 3 of 9).

With GFWLNSYSIS | VIYSDGRRQFYGDSVK | GRAAGTFDS the result was no signal (0 of 3 replicates; controls 0 of 9). The variant GFDLNSYGIS | VSYSDGRRTFYGDSVK | GRAAGTFDS gave no signal (0 of 3 replicates; controls 0 of 9). The variant HFYLNSYGIS | VIYSDYRRTFYGDSVK | GRAAGTFDS gave 200 nM (1 of 3 replicates; controls 1 of 9). The variant GFPLNSYGIS | VHYSDGRRTFYGDSVK | GRTAGTFDS gave 5.3 µM (2 of 3 replicates; controls 4 of 9). The variant GFELNSYGIS | VIYSDPRRTHYGDSVK | GRAAGTFDS gave no signal (0 of 3 replicates; controls 0 of 9). With GFKLNSYGIS | VIWSDQRRTFYGDSVK | GRAAGTFDS the result was 3.0 µM (1 of 3 replicates; controls 0 of 9). The variant GFQLNSYGIS | VIYYDGRRTFYGDSVK | GRAAGQFDS showed 29 nM (3 of 3 replicates; controls 4 of 9).

The variant GFFLNSYGIS | VIYSDGRRTFYGWSVW | GRAAGTFDS gave no signal (0 of 3 replicates; controls 0 of 9). The variant GFSLNSYGIS | VWYSDGRRTFYGDSVK | GRAAGTFGS showed no signal (0 of 3 replicates; controls 0 of 9). The variant GFVLNSYGIS | VIYSAGRRTFYGDFVK | GRAAGTFDS gave no signal (0 of 3 replicates; controls 0 of 9). The variant GFWLNSYGIS | VIYSDGRRTFYGDMVK | GAAAGTFDS showed 150 nM (2 of 3 replicates; controls 0 of 9). For GFFLNSYGIL | VIYSDGRRTFYGDSVK | GRAAGTFPS, the assay gave no signal (0 of 3 replicates; controls 1 of 9). The variant GFDLNSYGIS | VIYSDGRRTFYGDSVK | QRAAGDFDS showed no signal (0 of 3 replicates; controls 2 of 9). The variant VFWLNSYGIS | VIYSKGRRTFYGDSVK | GRAAGTFDS gave 13 µM (2 of 3 replicates; controls 3 of 9).

For GFRLNSYGIS | VIYSDGRRTFPGDSVK | GRAADTFDS, the assay gave 3.9 µM (1 of 3 replicates; controls 0 of 9). For GFILNSYGIS | HIYSDGRRTFYGDSVG | GRAAGTFDS, the assay gave no signal (0 of 3 replicates; controls 0 of 9). The variant GFYLNSYGIS | VIYSDGRRTFYGDSVK | GRARGTFMS showed no signal (0 of 3 replicates; controls 1 of 9). The variant GFDLNSYGIS | VIWSDGRRTFYGDSVK | GRAAGTFDH showed 110 nM (3 of 3 replicates; controls 2 of 9). With GFCLNSHGIS | VIYSDGRRTFYGDSVK | GRAAGYFDS the result was no signal (0 of 3 replicates; controls 0 of 9). The variant GFRLNSYGIS | VIYSQGRRTFYGDSVK | GRAAGTFIS gave no signal (0 of 3 replicates; controls 2 of 9). The variant GFNLNSYGIS | VDYSDGMRTFYGDSVK | GRAAGTFDS showed 10 µM (1 of 3 replicates; controls 0 of 9).

The variant GFELNSYGIS | VIYSQGRRTFYGWSVK | GRAAGTFDS showed no signal (0 of 3 replicates; controls 3 of 9).

The 4 strongest on average among those seen in every replicate, once more:

With GFQLNSYGIS | VIYYDGRRTFYGDSVK | GRAAGQFDS the result was 29 nM (3 of 3 replicates; controls 4 of 9).
With GFDLNSYGIS | VIWSDGRRTFYGDSVK | GRAAGTFDH the result was 110 nM (3 of 3 replicates; controls 2 of 9).
With GFLLNSYGIS | VIYSDGRRTFYGQSVK | GRMAGTFDS the result was 150 nM (3 of 3 replicates; controls 0 of 9).
With GFEFNSYGIS | VIYSDGRRTFYGDSVK | GRAAGTFDS the result was 180 nM (3 of 3 replicates; controls 1 of 9).